Source: patent US11000505B2 (priority 2010, dated 2021)
Only a part of the results on these compounds is given; other tests are left out.

System: pial artery
Assay: Pial artery diameter through closed cranial window (Example 1)

sodium nitroprusside
effect on pial artery (100 pM, sub threshold concentration): had no effects on the pial artery | dilation response in presence of L-NNA (L-NNA 1 μM (NOS inhibitor)): not affected by L-NNA
